Measured values taken from ChEMBL document CHEMBL3997851, “Design and Synthesis of Mercaptoacetamides as Potent, Selective, and Brain Permeable Histone Deacetylase 6 Inhibitors” (ACS Med Chem Lett, 2017).

Legend:
Homo sapiens = species on record: Homo sapiens; test: Selectivity ratio of IC50 for human HDAC1 to IC50 for human HDAC6
In short: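 HDAC1 and HDAC6 IC50s are each the mean of two experiments.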

[1] = molecular target: T1, Protein deacetylase HDAC6 (Homo sapiens) (UniProt Q9UBN7); test: Inhibition of HDAC6 in HEK293 cells assessed as induction of tubulin acetylation after 24 hrs by Western blot method; assay type: cell-based
T1 sequence (whole entry): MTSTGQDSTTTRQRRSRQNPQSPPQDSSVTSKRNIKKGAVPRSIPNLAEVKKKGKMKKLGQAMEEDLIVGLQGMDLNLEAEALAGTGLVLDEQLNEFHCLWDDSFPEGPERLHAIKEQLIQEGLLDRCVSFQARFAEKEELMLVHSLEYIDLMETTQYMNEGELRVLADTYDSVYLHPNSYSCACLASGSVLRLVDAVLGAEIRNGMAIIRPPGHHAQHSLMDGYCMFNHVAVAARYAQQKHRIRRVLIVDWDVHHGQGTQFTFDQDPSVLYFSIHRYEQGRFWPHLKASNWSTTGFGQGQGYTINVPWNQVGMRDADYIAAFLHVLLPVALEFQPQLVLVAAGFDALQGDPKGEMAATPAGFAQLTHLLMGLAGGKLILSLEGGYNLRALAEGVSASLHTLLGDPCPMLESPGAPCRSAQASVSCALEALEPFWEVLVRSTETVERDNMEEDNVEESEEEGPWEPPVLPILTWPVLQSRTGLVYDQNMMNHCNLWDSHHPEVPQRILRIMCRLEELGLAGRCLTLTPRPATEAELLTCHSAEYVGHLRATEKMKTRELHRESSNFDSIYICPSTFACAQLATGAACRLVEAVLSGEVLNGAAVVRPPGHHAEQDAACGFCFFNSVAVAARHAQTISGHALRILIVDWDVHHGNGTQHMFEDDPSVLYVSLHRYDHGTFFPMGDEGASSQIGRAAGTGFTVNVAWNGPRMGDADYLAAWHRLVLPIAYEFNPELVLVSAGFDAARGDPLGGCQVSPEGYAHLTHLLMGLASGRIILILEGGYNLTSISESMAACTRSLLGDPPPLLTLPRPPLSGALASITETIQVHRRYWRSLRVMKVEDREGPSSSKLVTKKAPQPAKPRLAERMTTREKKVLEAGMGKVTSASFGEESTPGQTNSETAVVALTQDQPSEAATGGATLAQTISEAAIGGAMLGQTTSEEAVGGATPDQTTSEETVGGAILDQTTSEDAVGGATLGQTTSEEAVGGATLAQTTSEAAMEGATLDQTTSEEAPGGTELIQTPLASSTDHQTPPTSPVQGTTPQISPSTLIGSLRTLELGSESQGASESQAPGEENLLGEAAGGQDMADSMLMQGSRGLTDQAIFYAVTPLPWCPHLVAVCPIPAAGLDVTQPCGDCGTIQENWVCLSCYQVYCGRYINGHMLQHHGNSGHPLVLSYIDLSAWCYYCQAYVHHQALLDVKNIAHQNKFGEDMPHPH
In short: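 HEK293 cells are treated with compound, and acetylated tubulin and histone H3 are detected by Western blot with GAPDH as loading control. Each blot carries a tubastatin 10 µM positive control and a DMSO or medium negative control.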

**Q.** For `O=C(CS)NCCCCNc1c(Cl)cc(Cl)c2cccnc12`, which Ratio IC50 (Homo sapiens) is on record?
**A.** 2470

**Q.** What about the inhibition [1] of the same molecule?
**A.** Dose-dependent effect
